Earlier results in US10590413B2, “Chiral control” (WAVE LIFE SCIENCES LTD., priority 2012, dated 2020).

Tested on: NK activity
Details: cited from earlier work

Q: What does the source list for IL-2?
A: LU/10^6, Human Cells (Expt. 1, human cells, None = 0.00): 15.82 LU/10^6; LU/10^6, Mouse Cells (Expt. 1, mouse cells, None = 0.00): 16.68 LU/10^6; NK activity LU/10^5 Human Cells (human cells, Table 3 of U.S. Pat. No. 6,214,806): 15.82 LU/10^5; NK activity LU/10^6 Human cells (human cells, Table 9 of U.S. Pat. No. 6,207,646): 15.82 LU/10^6; NK activity LU/10^5 Mouse Cells (mouse cells, Table 3 of U.S. Pat. No. 6,214,806): 16.68 LU/10^5; NK activity LU/10^6 Mouse Cells (mouse cells, Table 9 of U.S. Pat. No. 6,207,646): 16.68 LU/10^6
